Results reported in patent US12678474B2, “Screening of fixed-point coupling sites of cysteine-modified antibody-toxin conjugate (TDC)” (SICHUAN BAILI PHARMACEUTICAL CO. LTD., priority 2017, dated 2026).

B1: 2A1-LC-Cys110ins: 2A1 antibody with cysteine inserted at light chain position 110 (SEQ ID NO: 16) (antibody)
heavy: DVQLQESGPSLVKPSQSLSLTCTVTGYSITSDFAWNWIRQFPGNKLEWMGYISYSGNTRYNPSLKSRISITRDTSKNQFFLQLNSVTIEDTATYYCVTAGRGFPYWGQGTLVTVSAASTKGPSVFPLAPSSKSTSGGTAALGCLVKDYFPEPVTVSWNSGALTSGVHTFPAVLQSSGLYSLSSVVTVPSSSLGTQTYICNVNHKPSNTKVDKRV[human IgG1 Fc not spelt out]
light: DILMTQSPSSMSVSLGDTVSITCHSSQDINSNIGWLQQRPGKSFKGLIYHGTNLDDEVPSRFSGSGSGADYSLTISSLESEDFADYYCVQYAQFPWTFGGGTKLEIKRTCVAAPSVFIFPPSDEQLKSGTASVVCLLNNFYPREAKVQWKVDNALQSGNSQESVTEQDSKDSTYSLSSTLTLSKADYEKHKVYACEVTHQGLSSPVTKSFNRGE
B2: 2A1-LC-Cys111ins: 2A1 antibody with cysteine inserted at light chain position 111 (SEQ ID NO: 18) (antibody)
heavy: B1 heavy
light: DILMTQSPSSMSVSLGDTVSITCHSSQDINSNIGWLQQRPGKSFKGLIYHGTNLDDEVPSRFSGSGSGADYSLTISSLESEDFADYYCVQYAQFPWTFGGGTKLEIKRTVCAAPSVFIFPPSDEQLKSGTASVVCLLNNFYPREAKVQWKVDNALQSGNSQESVTEQDSKDSTYSLSSTLTLSKADYEKHKVYACEVTHQGLSSPVTKSFNRGEC
B3: 2A1-LC-Cys142ins: 2A1 antibody with cysteine inserted at light chain position 142 (SEQ ID NO: 20) (antibody)
heavy: B1 heavy
light: DILMTQSPSSMSVSLGDTVSITCHSSQDINSNIGWLQQRPGKSFKGLIYHGTNLDDEVPSRFSGSGSGADYSLTISSLESEDFADYYCVQYAQFPWTFGGGTKLEIKRTVAAPSVFIFPPSDEQLKSGTASVVCLLNNFYPCREAKVQWKVDNALQSGNSQESVTEQDSKDSTYSLSSTLTLSKADYEKHKVYACEVTHQGLSSPVTKSFNRGEC

What was measured:
[1] = biological target: T1, Recombinant EGFRVIII-His*6 antigen (Homo sapiens, DELINS[…]G); experiment: ELISA relative affinity for EGFRvIII; assay type: binding; conditions: for EC50: EGFRvIII-coated plates, A450, read-out: EC50 (nM), mutant antibody affinity
T1 construct: His*6
Source text: Insertion Mutation Modification and Parent Antibody 2A1 for EGFRvIII • ELISA was used to compare the relative affinities of 2A1-LC-Cys110ins-mc-vc-PAB-MMAE TDC, 2A1-LC-Cys111ins-mc-vc-PAB-MMAE TDC, 2A1-LC-Cys142ins-mc-vc-PAB-MMAE TDC, 2A1-HC-Cys254ins-mc-vc-PAB-MMAE TDC, 2A1-HC-Cys255ins-mc-vc-PAB-MMAE TDC, 2A1-HC-Cys258ins-mc-vc-PAB-MMAE TDC, 2A1-HC-Cys259ins-mc-vc-PAB-MMAE TDC, 2A1-HC-Cys354ins-mc-vc-PAB-MMAE TDC, 2A1-HC-Cys355ins-mc-vc-PAB-MMAE TDC, 2A1-HC-Cys357ins-mc-vc-PAB-MMAE TDC, 2A1-HC-Cys378ins-mc-vc-PAB-MMAE TDC, 2A1-HC-Cys379ins-mc-vc-PAB-MMAE TDC, 2A1-HC-Cys386ins-mc-vc-PAB-MMAE TDC, 2A1-HC-Cys387ins-mc-vc-PAB-MMAE TDC, 2A1-HC-Cys410ins-mc-vc-PAB-MMAE TDC, and 2A1 for EGFRvIII. The specific process used was as follows:
Recombinant […]-His*6 antigen was used to coat plates; fish skin gelatin was used as a seal; dilution of each insertion mutant antibody was performed separately, up to a maximum concentration 10 μg/ml and a 4-fold gradient dilution was performed for a total of 11 concentrations; HRP-labeled secondary antibodies were used for incubation; TMB was used for development and absorption detection was performed at 450 nm.

[2] = system: EGFRwt-overexpressing human skin squamous cell carcinoma cell line A431; experiment: MTS cytotoxicity (cell viability) assay, A431; assay type: cell-based; conditions: antibodies; 72 hours
Protocol: (§1) TDC cytotoxic activity was determined via the following experimental procedure: TDC was added to EGFR-overexpressing or […]-expressing human tumor cell culture medium, and cell viability was determined after 72 hours of cell culture. Cell-based in vitro experiments were used to determine cell viability, cytotoxicity and programmed cell death induced by TDC constituted by the present invention.
(§2) In vitro efficacy of antibody-toxin conjugates was determined via a cell proliferation assay. A CellTiter ^96® AqueousOne Solution Cell was Proliferation Assay purchased commercially from Promega Corp. (Madison, WI). CellTiter ^96® Aqueous One Solution Cell Proliferation Assay (a) is a colorimetric method used to detect the number of living cells in cell proliferation and cytotoxicity experiments. The above reagent contains the novel tetrazole compound [3-(4,5-dimethylthiazol-2-yl)-5-(3-carboxymethoxyphenyl)-2-(4-sulfophenyl)-2H-tetrazolium, inner salt; MTS) as well as an electronic coupling agent (phenazine ethosulfate; PES). […] This convenient “single solution” model is an improvement on the first generation of the CellTiter ^96® Aqueous Assay, in which the electronic coupling agent PMS was supplied separately from the MTS solution. MTS (Owen's reagent) is reduced by cellular organisms into a colored formazan product, which can be directly dissolved in culture medium (FIG. 1). This conversion is likely facilitated by NADPH NADH produced by dehydrogenase present in metabolically active cells. For the assay, a small amount of CellTiter ^96® Aqueous One Solution Reagent is added directly to the medium present in the wells of the culture plate, after which incubation is performed for 1 to 4 hours, followed by reading of the absorbance value at 490 nm using a microplate reader.
(§3) The amount of formazan product detected at 490 nm is proportional to the number of viable cells in culture. Because the formazan product of MTS is soluble in tissue culture medium, CellTiter ^96® Aqueous One Solution Assay requires fewer steps than the MTT or INT methods. A431 (EGFR-overexpressing cells) and U87-[…] […]

[3] = system: EFGRvIII-overexpressing human glioma cell line U87-EGFRvIII; experiment: MTS cytotoxicity (cell viability) assay, U87-EGFRvIII; assay type: cell-based; conditions: antibodies; 72 hours; read-out: IC50, U87MG-EGFRvIII (MTS)
Protocol: as §1, §2, §3

Molecule	Affinity for EGFRvIII relative to 2A1 (in words) [1]	EC50 [1] [nM]	IC50 [2] [µM]	IC50 [3] [µM]
B1	maintained 2A1 affinity	0.0404	> 10	> 10
B2	maintained 2A1 affinity	0.0467	> 10	> 10
B3	maintained 2A1 affinity	0.0498	> 10	> 10
